Earlier results as cited in US5320825A, “Serotonin reuptake inhibitors for S.P.E.C.T. imaging” (Trustees of the University of Pennsylvania, priority 1991, dated 1994).

What was measured:
[1] = target: serotonin reuptake system (5-HT); conditions: read-out: Inhibition of monoamine uptake, 5-HT (Ki); cited from earlier work
[2] = target: norepinephrine (NE) reuptake system; conditions: rat synaptosomes; read-out: Inhibition of monoamine uptake, NE (Ki); cited from earlier work

CNCCC(Oc1ccc(C(F)(F)F)cc1)c1ccccc1 (stereo not drawn) [Fluoxetine]
Ki [1]: 25 nM

Fc1ccc([C@@H]2CCNC[C@H]2COc2ccc3c(c2)OCO3)cc1 [Paroxetine]
Ki [1]: 1.1 nM

CNC1CCC(c2ccc(Cl)c(Cl)c2)c2ccccc21 (stereo not drawn) [Sertraline]
Ki [2]: 720 nM
